Results reported in patent publication US11771773B2, “Pharmaceutical preparation containing polyethylene gylcol loxenatide and preparation method thereof” (Jiangsu Hansoh Pharmaceutical Group Co., Ltd., priority 2016, dated 2023).

Conditions: clinical results

Substance: polyethylene glycol loxenatide
- half-life (t½): up to 80 hours
